## scFv variants of Ab-95 (light chain) against a SARS-CoV-2 spike peptide

Antigen: PDVDLGDISGINAS, a 14-residue peptide of the SARS-CoV-2 spike HR2 region.

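Variants in AAYL52 differ from the parent at up to three CDR positions; double and triple changes were sampled at random. Affinity was read by AlphaSeq, a pooled yeast mating assay with surface-displayed partners. Binding brings cells together so that they mate, and sequencing counts the barcode pairs among the diploids. Read counts were normalised to the haploid input and turned into Kd by a linear fit to BCL2-family pairs of known affinity, for each replicate. The assay was run in three technical replicates.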

The variants keep the heavy chain, the linker and the frameworks of Ab-95 (scFv order VH, the linker GGGGSGGGGSGGGGS, VL).
VH: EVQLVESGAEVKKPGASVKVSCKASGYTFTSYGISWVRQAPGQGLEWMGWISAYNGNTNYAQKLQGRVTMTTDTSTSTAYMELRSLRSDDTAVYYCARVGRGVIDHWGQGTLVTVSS
VL: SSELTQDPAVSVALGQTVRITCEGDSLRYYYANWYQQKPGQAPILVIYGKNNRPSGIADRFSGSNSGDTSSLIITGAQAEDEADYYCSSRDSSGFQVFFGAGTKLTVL

The parent's light chain CDRs are EGDSLRYYYAN, GKNNRPS, SSRDSSGFQVF; each variant's own CDRs replace them letter for letter. The Kd shown is the geometric mean over detected replicates; a lower Kd is a better binder. "not detected" marks a missing value. The strain was present, yet no cells mated with the target were sequenced in any replicate, which points to weak or no binding. As a blank, each scFv also met three strains without target: over library AAYL52, 28% of these pairings were detected, typically at 8.2 µM and seldom below 800 nM. Parent in this assay: reference entry 200 nM, copy in this library 180 nM.

Kd,replicates with signal,CDR-L1,CDR-L2,CDR-L3
not detected,0/3,EFDSLRYYYVK,GKNNRPS,SSRDSSGFQVF
6.6 µM,3/3,EGDSLSYYYAN,GDNNRPS,SSRDSSGFQVE
2.1 µM,3/3,EGISLRYYYVN,GKNFRPS,SSRDSSGFQVF
1.1 µM,2/3,EGDSGRYYYAN,GKNNRPS,PSRVSSGFQVF
95 nM,3/3,EGDHLRYYYAN,GKNNRPS,SSIDSSGFQVF
2.8 µM,1/3,EGDRLRYYYPN,GKNNRPS,SSRDHSGFQVF
not detected,0/3,EGDSKRYYYAN,GKNNRPA,SSRDSSLFQVF
1.4 µM,3/3,EFDSLRYYYAN,GKNNRPS,SCRDSSGFQHF
52 µM,1/3,EGDSLEYYYHN,GKNNRPS,SSRDSSMFQVF
2.3 µM,3/3,EGHSLRYYYAN,GKENRPS,SSRDSSGFQMF
220 nM,3/3,EGDSLRYYFAN,GKNMRPS,SSRDSHGFQVF
1.8 µM,3/3,EADSLRYYQAN,GKNNRPS,SSRDWSGFQVF
11 µM,2/3,EGDSHRYYYAN,GKNNRPS,SSRDSSGHQMF
5.6 µM,2/3,DGDSLRYYYAN,GKNNAPS,SSRDSSGAQVF
2.9 µM,3/3,HGISLRYYYAN,GKNNRRS,SSRDSSGFQVF
82 nM,3/3,EGDSLRYRYAN,GKNQRPS,SSRDSSGQQVF
180 nM,3/3,EGDSLAYYYAN,GDNNRPS,SERDSSGFQVF
190 nM,3/3,EGWSLTYYYAN,GKNNRPS,SSRDSTGFQVF
7.3 µM,3/3,EGDSLRYMYAY,GKNNRPS,SSRDSSGFQVF
8.3 µM,1/3,EGDSLRYYYAN,GKNNRPT,SNRDDSGFQVF
24 µM,3/3,EGDSTRYYYAN,GKNNRPS,SSRLSSHFQVF
not detected,0/3,EGDSLRWFYAN,GKPNRPS,SSRDSSGFQVF
8.1 µM,1/3,EGGSLRYYYAN,GKNNRPS,CSRNSSGFQVF
not detected,0/3,EPDSLRYYYSN,GKNNRPS,SSRDSSGFIVF
6.3 µM,1/3,EGDSLRYYYAA,KKNERPS,SSRDSSGFQVF
57 µM,2/3,EMDSLRYYYAN,GKNNCPS,SSRDSSGFQVF
5.6 µM,3/3,ENDSLRYYYAN,GKNNRPS,SNRDSPGFQVF
33 µM,3/3,EGDSLRYYYAP,GKNNRPS,SERSSSGFQVF
1.2 µM,3/3,EGDSLRYYYCN,GKNNRPS,KSRDSSMFQVF
72 nM,3/3,EGDSLNNYYRN,GKNNRPS,SSRDSSGFQVF
52 nM,3/3,EGDSLRQYSAN,GKNNRPS,SSRDSSGFRVF
12 µM,1/3,HGDSLRYYYAN,GKNNPPS,SSRDMSGFQVF
95 µM,2/3,EKDSLRYYYAN,GKNNSPS,SSRDSSGGQVF
2.4 µM,2/3,EGDSLRYYYAN,GKNRTPS,SSRDSSGFYVF
4.0 µM,1/3,EGDSLRYYYAN,GKNNRPS,QPRWSSGFQVF
29 µM,1/3,EGSSLRYYYAN,GKKNRPS,SSRDSSGGQVF
1.3 µM,3/3,EGDSLRQYYAN,GKNNRPR,SSRDSSGFQEF
75 µM,1/3,EGDTLFYYYAN,CKNNRPS,SSRDSSGFQVF
1.2 µM,3/3,EGDSLRYHYSN,GKCNRPS,SSRDSSGFQVF
670 nM,3/3,EGDSLRYYYAN,GKNNRPM,VSRDSSLFQVF
not detected,0/3,HGDSLRYYFAP,GKNNRPS,SSRDSSGFQVF
140 nM,3/3,EGDSLRYYYAN,GKNNRPS,SSRLSSGFQVP
960 nM,3/3,EADSLRYYYAN,GKNNRPS,SSRDESRFQVF
680 nM,3/3,EGDSLRYYYAN,GSNNRPL,SSRDSSGSQVF
not detected,0/3,EGDSLRYYYAN,WKNNRPS,ISRDASGFQVF
4.1 µM,1/3,EGDSLRYYYAN,CKNNIPS,SSRDSLGFQVF
not detected,0/3,EGDSLRYYYAN,KKNNRPK,SSRDSSGFQWF
not detected,0/3,EGDSLRYYYAN,CKNNRRS,SSRDSSKFQVF
3.8 µM,2/3,EGDSLRYYYAN,MKNNRPS,SSRDSSWNQVF
6.5 µM,1/3,EGDSWRYKYAP,GKNNRPS,SSRDSSGFQVF
11 µM,1/3,EGDSLRYYYAN,GKNNRPY,SSRVSSGYQVF
not detected,0/3,EGDSCRYYYAN,GKNNRPS,SSRDSSGWQEF
10 µM,2/3,EGDSLRYYYAN,GKKNRPS,FSRDSSGRQVF
720 nM,1/3,EGDSLRYYIAN,GKENRPS,SSRDGSGFQVF
46 nM,3/3,EGDSLRSYYAN,GKNNRPD,SSRDSSGFQVR
3.3 µM,3/3,EGDSLRYYYAN,GKNMRPS,QSRDSSGFQVF
1.4 µM,2/3,EGDSLRRYYAN,GKNNRPS,SSRDSSLAQVF
68 nM,3/3,ESDSLRYYYAN,GKNNRPS,SSRDHSGFQVF
460 nM,1/3,EGDSLRKYYAN,GKNNRPS,SSRDSNGFQEF
35 µM,1/3,EGDSSRYYYAN,GMNNRPS,SSGDSSGFQVF
86 µM,2/3,EGDSLRYYYAN,IKNNQPS,SSRDTSGFQVF
99 µM,2/3,EGDSLRYYYAN,GKNNGPS,SSRFSSGYQVF
not detected,0/3,EGDELRYYYAN,GKYNRPS,SSRDSSGFQVF
96 nM,3/3,EGDSLRYAYAN,GKNNLPS,SSRDSSGNQVF
21 µM,1/3,EGDILRYYYAN,GKNNYPS,SDRDSSGFQVF
3.0 µM,1/3,EGDELRYYYAN,GKCNRPS,SSRDSSGVQVF
230 nM,3/3,EGDSLRYYYAN,GKNNRPS,SSRDCSGAQVF
1.0 µM,3/3,EGDSLRYFYAN,GKNNRPS,SSRDASGLQVF
not detected,0/3,EGTFLRYYYHN,GKNNRPS,SSRDSSGFQVF
2.6 µM,2/3,EGDSLRYYYAN,GKKNRPS,SSRDSTGFQVF
3.6 µM,3/3,EGDSLRYYYNN,GLNNRPS,SSRDSSGFQVS
3.3 µM,2/3,EGDSLRYYYAN,GKPNRPS,KSRPSSGFQVF
5.2 µM,3/3,EGDELRYYYAN,GKNNRPS,SSRDSSGFNNF
130 nM,3/3,EYDSLRYYYAN,GKNNRPS,QARDSSGFQVF
4.7 µM,3/3,EGDSLRYYYAS,GKNYRPS,SSRDSSGLQVF
3.3 µM,1/3,NGDSLRYYYAN,GKNNRPS,SSRDSSGHQVN
2.7 µM,1/3,EGDSLRYLYIN,GKNNRPS,SSRDTSGFQVF
84 µM,1/3,EGDSLMYYYAN,MKNNRPS,SERDSSGFQVF
27 µM,1/3,EGDSLRYYYAN,GKNNRHS,ASWDSSGFQVF

Values reported by Engelhart et al. 2022, doi:10.1038/s41597-022-01779-4 (FLAb copy).